# Apparent affinities of Ab-95 variants for a coronavirus HR2 peptide

Binding partner: SARS-CoV-2 spike HR2 peptide, sequence PDVDLGDISGINAS.

Parent: Ab-95, a human scFv built as VH, a 15-residue (Gly4Ser)3 linker, VL. Only the CDRs of the light chain vary.
VH: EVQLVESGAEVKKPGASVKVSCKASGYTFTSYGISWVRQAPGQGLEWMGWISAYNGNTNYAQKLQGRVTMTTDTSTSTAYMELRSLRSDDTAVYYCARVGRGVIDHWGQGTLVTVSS
VL: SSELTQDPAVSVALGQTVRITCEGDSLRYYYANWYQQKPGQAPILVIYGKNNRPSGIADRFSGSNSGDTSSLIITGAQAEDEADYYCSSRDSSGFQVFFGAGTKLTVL

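The parent was found by panning a naive human phage display library on the peptide. The library (AAYL52) carries one to three amino acid substitutions per variant, with no insertions or deletions. In AlphaSeq, yeast of one mating type display the scFv and yeast of the other type display the target. Binding brings cells together so that they mate, and sequencing counts the barcode pairs among the diploids. Read counts were normalised to the haploid input and turned into Kd by a linear fit to BCL2-family pairs of known affinity, for each replicate. There are three technical replicates.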

The parent's light chain CDRs are EGDSLRYYYAN, GKNNRPS, SSRDSSGFQVF; each variant's own CDRs replace them letter for letter.
Scale: log10 of Kd in nM, estimated from mating counts; low values are strong binders.
The mean shown is taken over the replicates in which the pair was detected.
Where no diploid with the target was found in that replicate, the entry reads "n.d.": below detection, most likely a poor binder, though not proof of it.

CDR-L1,CDR-L2,CDR-L3,"log10 Kd, replicates","log10 Kd (nM), mean",empty controls
EPDSLRYYYDN,GCNNRPS,SSRDSSGFQVF,n.d. / 3.45 / 4.37,3.91,8/9 (4.14)
EGDSLRYYYAN,GKNNTPS,YSRESSGFQVF,n.d. / 4.63 / 4.03,4.33,6/9 (3.92)
EGMSLRLYYAN,GVNNRPS,SSRDSSGFQVF,4.41 / n.d. / n.d.,4.41,2/9 (3.59)
EGDSLRYYYAN,GKNNRPS,SSRGFSGFQVN,3.39 / 3.27 / 2.39,3.02,2/9 (3.78)
EGDSLAYYYAN,GQNNFPS,SSRDSSGFQVF,n.d. / n.d. / n.d.,n.d.,0/9
SFDSLRYYYAN,GKNNRPS,SSHDSSGFQVF,3.05 / 3.98 / n.d.,3.52,5/9 (3.78)
EGDSLRYYYAN,GHNNRES,SSRDDSGFQVF,3.86 / 3.15 / 3.46,3.49,3/9 (3.83)
EGDSMYYYYAN,GKNNRPS,FSRDSSGFQVF,3.66 / 3.03 / 4.30,3.66,1/9 (4.23)
EGDMLRYYYAN,GKNNRPS,SSRDSRGFQVH,n.d. / 3.78 / n.d.,3.78,4/9 (3.82)
EYDSLRSYYEN,GKNNRPS,SSRDSSGFQVF,n.d. / n.d. / n.d.,n.d.,1/9 (4.46)
EGDSLRYYYAN,GKNNRPS,SSIDSSGPQYF,3.92 / 3.15 / 2.94,3.34,0/9
EVDSLRYYYAN,GKNNRPS,SSRDSSGFQVF,3.00 / 3.09 / 2.87,2.99,1/9 (5.34)
EGDSLRWYYAN,GKNNRPS,SSRDSLGFQQF,n.d. / 4.79 / n.d.,4.79,3/9 (4.17)
ESDSLRYYYAN,GKNNRPS,SLRDSSGSQVF,2.91 / 2.73 / 2.14,2.60,6/9 (3.59)
EGDSLRYYYAA,GKNNRPS,SSRDTSIFQVF,3.58 / 3.38 / n.d.,3.48,1/9 (3.09)
EGDSLRYYTAN,GKSNRGS,SSRDSSGFQVF,2.39 / 2.47 / 2.41,2.42,4/9 (3.81)
EGDSLRYYYAN,GSNNRPS,SSRDSSGFQVF,2.49 / 2.79 / 2.15,2.48,2/9 (3.59)
EGDSLRYYYAN,GKNNTPS,SSRDSVGNQVF,5.84 / 3.02 / 2.99,3.95,1/9 (4.75)
EGDSLRYYYAN,GKNNYPS,LSRDSSGFQVF,n.d. / 4.71 / n.d.,4.71,0/9
EGDSLRYYYAN,GKNHRPA,SSRDSSGFQYF,3.49 / 3.32 / 3.32,3.37,4/9 (4.33)
AGDSLRYYYAN,GKANRPS,SSRDSYGFQVF,3.75 / 3.23 / 4.15,3.71,1/9 (3.57)
EGMSLYYYYAN,GKNNRPS,SSRISSGFQVF,n.d. / n.d. / 3.05,3.05,3/9 (3.38)
EQDSLRYYYAN,GDNNRPS,SSRDSSGFIVF,n.d. / 3.58 / n.d.,3.58,5/9 (4.09)
EEDSLRYYYAN,GKNNRPS,SSRDSSGFQVF,5.43 / 5.25 / n.d.,5.34,2/9 (3.60)
EGDSLRYPYAN,GKNMRPS,SSNDSSGFQVF,3.53 / 4.17 / 4.44,4.05,2/9 (3.91)
EGDSLRYYYLN,GKNNRVS,SSRDSDGFQVF,n.d. / n.d. / n.d.,n.d.,0/9
EGDSLRYYYAN,GKNKRLS,SSRDSSGFQVF,3.31 / 2.72 / 3.65,3.23,0/9
EGDSLRFPYAN,GKNNRPS,SSRDSSGFQVF,1.94 / 2.28 / 2.17,2.13,1/9 (3.00)
EGDSLYYYYAN,DKNNRPS,SSRTSSGFQVF,2.36 / 3.01 / 1.69,2.35,5/9 (4.09)
EGQSLRYGYFN,GKNNRPS,SSRDSSGFQVF,2.42 / 2.17 / 2.08,2.22,4/9 (4.09)
EGDSLRWYYAN,SKNNRPS,SSRDSTGFQVF,3.74 / 3.28 / n.d.,3.51,4/9 (4.21)
EGDSLRCYYAN,GLNNRPS,FSRDSSGFQVF,3.18 / 4.37 / 3.88,3.81,4/9 (4.65)
EGLSMRYYYHN,GKNNRPS,SSRDSSGFQVF,4.85 / n.d. / n.d.,4.85,2/9 (3.84)
EGDSLRYYYAN,GKNNRPS,SSADSSFFQVT,3.11 / n.d. / 3.04,3.07,3/9 (3.53)
EGDSLRYYYAN,GKNNRPY,SSCDSSGFVVF,5.53 / 4.57 / n.d.,5.05,2/9 (5.12)
EGDQLRYYYAN,GKNNYHS,SSRDSSGFQVF,4.80 / n.d. / 4.64,4.72,3/9 (3.81)
EEDMLRYYYAN,GKNNRPS,SGRDSSGFQVF,2.90 / 3.97 / 3.48,3.45,5/9 (3.56)
EGDSLRYYYAY,GKNNRRS,SSRDSSGFEVF,3.81 / 4.44 / n.d.,4.12,2/9 (3.40)
EHDSLRYYYAN,GKNNRPM,SSRDSSGFQVP,2.99 / 2.55 / 2.26,2.60,2/9 (3.85)
EGDSLRYYYAN,GKNNGPK,SSRDSSGFQCF,n.d. / 4.42 / 3.55,3.98,4/9 (3.56)
EGDSLRYWYAN,GKNNRPS,SSRDSSGRVVF,4.60 / 3.48 / 4.13,4.07,2/9 (4.57)
EGDSLRYYYAE,GKNNRPS,SSRDSSQFQVF,n.d. / 2.79 / n.d.,2.79,0/9
EGDSIRYYYAN,TKNNRPS,SSRDSSGFLVF,n.d. / n.d. / n.d.,n.d.,3/9 (4.60)
EGDSLRYYWAN,GWNNRHS,SSRDSSGFQVF,n.d. / 5.05 / n.d.,5.05,1/9 (5.39)
EGDSLRYYYAN,IFNNRPS,SSRDSSGFQVM,2.72 / 4.54 / n.d.,3.63,3/9 (4.15)
EGFSLRYFYAN,GKNNRMS,SSRDSSGFQVF,n.d. / n.d. / n.d.,n.d.,1/9 (2.99)

The 8 strongest on average among those seen in every replicate, once more:

CDR-L1,CDR-L2,CDR-L3,"log10 Kd, replicates","log10 Kd (nM), mean",empty controls
EGDSLRFPYAN,GKNNRPS,SSRDSSGFQVF,1.94 / 2.28 / 2.17,2.13,1/9 (3.00)
EGQSLRYGYFN,GKNNRPS,SSRDSSGFQVF,2.42 / 2.17 / 2.08,2.22,4/9 (4.09)
EGDSLYYYYAN,DKNNRPS,SSRTSSGFQVF,2.36 / 3.01 / 1.69,2.35,5/9 (4.09)
EGDSLRYYTAN,GKSNRGS,SSRDSSGFQVF,2.39 / 2.47 / 2.41,2.42,4/9 (3.81)
EGDSLRYYYAN,GSNNRPS,SSRDSSGFQVF,2.49 / 2.79 / 2.15,2.48,2/9 (3.59)
ESDSLRYYYAN,GKNNRPS,SLRDSSGSQVF,2.91 / 2.73 / 2.14,2.60,6/9 (3.59)
EHDSLRYYYAN,GKNNRPM,SSRDSSGFQVP,2.99 / 2.55 / 2.26,2.60,2/9 (3.85)
EVDSLRYYYAN,GKNNRPS,SSRDSSGFQVF,3.00 / 3.09 / 2.87,2.99,1/9 (5.34)

Parent in this assay: reference entry 2.31, copy in this library 2.25.
Background: pairings of library AAYL52 with three empty control strains gave a value in 28% of cases (median 3.91, 5th percentile 2.90). Values in that range, when seen in few replicates, are hard to tell from nonspecific mating. The control count says in how many pairings with the empty strains this scFv gave a signal, with their mean in brackets.

Source: Engelhart et al. 2022 (doi:10.1038/s41597-022-01779-4), MIT Lincoln Laboratory and A-Alpha Bio; data file from the FLAb repository.